Experimental data reported in US20190359686A1 (INNOVATIVE TECHNOLOGIES IN BIOLOGICAL SYSTEMS SL, published 2019).

Chains of the proteins cited; added tags and fusions are not shown.
UniProt P25103, whole entry: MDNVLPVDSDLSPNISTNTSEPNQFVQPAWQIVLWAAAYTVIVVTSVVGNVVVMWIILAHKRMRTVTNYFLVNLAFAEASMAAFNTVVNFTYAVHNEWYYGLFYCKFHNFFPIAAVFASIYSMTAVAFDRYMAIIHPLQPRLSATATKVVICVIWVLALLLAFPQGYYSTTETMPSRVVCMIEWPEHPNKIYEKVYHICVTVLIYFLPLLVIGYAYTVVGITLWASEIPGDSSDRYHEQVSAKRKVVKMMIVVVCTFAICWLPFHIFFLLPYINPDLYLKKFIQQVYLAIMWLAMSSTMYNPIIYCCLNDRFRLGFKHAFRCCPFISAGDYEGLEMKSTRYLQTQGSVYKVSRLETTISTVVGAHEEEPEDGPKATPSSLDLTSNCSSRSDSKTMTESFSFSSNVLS

Biological target: Tachykinin receptor 1 (NK1) (UniProt P25103)
Assay: cell-based or functional assay

- Ec50, Red ß-ARRNomad biosensor change of localization (image assay, BD Pathway 855), 24 h: 2.99 nM
- Ec50, increase in fluorescence of Red ß-ARRNomad biosensor (Synergy 2 microplate reader), 24 h: 5.2 nM
Substance: Substance P (from UniProt P20366 58-68) (peptide)
